Here are results for one compound from PubChem BioAssay AID651613 (The Scripps Research Institute Molecular Screening Center, 2012).

Amino acid sequences for entries named in this document (tags omitted).
UniProt O00482, whole entry: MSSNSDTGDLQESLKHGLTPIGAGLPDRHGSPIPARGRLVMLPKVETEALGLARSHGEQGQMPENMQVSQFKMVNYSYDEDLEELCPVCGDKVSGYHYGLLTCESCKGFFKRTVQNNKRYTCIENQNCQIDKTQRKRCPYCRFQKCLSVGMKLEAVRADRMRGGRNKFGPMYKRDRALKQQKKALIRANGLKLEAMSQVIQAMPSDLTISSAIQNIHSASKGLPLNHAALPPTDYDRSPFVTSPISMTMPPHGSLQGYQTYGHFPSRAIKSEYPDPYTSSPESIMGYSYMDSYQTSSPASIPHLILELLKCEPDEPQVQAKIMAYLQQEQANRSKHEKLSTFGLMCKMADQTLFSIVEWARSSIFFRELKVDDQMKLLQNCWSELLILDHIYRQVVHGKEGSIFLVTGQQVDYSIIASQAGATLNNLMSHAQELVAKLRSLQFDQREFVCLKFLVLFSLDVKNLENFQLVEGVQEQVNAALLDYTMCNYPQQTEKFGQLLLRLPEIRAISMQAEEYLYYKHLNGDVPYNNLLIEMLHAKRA

Structures are written as SMILES. The entries are a selection whose mix differs from that of the whole data set. The source made the active and inactive calls. Rule as the data show it: active = inhibition above about 42%; inactive = the rest.

The target of the assay is Nuclear receptor subfamily 5 group A member 2 (Homo sapiens) (UniProt O00482). Kind of assay: LRH-1 (NR5A2) inverse agonists, retest, confirmation, cell-based, luminescence (AID 651613).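 Also: HEK293T cells co-transfected with LRH-1 and StAR promoter luciferase reporter; 0% = vehicle wells and 100% = parental cells lacking receptor.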 The following applies: cell-based LRH-1 luciferase reporter, inverse agonism; at 3.6 µM; hits give high values.
As usually defined, the inhibition is the percentage by which the read-out fell short of the control. As for `O=[N+]([O-])c1cc([N+](=O)[O-])c(-c2cnn(-c3ccccc3)c2)c([N+](=O)[O-])c1`, the inhibition was active: 61.3%.
